Experimental data published in PubChem BioAssay AID1347071 (National Center for Advancing Translational Sciences (NCATS), 2019).
Only a part is listed here, and it is no random draw. Active and inactive are the calls of the source. Calls follow the shape of the dose curve; as a rule, active = well fitted activation curve with a large enough effect; inconclusive = small, poorly fitted or top-dose-only effect; inactive = no such curve, though single readings can be large or run the other way.

Assay: qHTS for compounds that reverse cellular toxicity of Amyloid beta (A-beta) peptide in yeast: Primary Screen; also: nearly all actives have a fitted effect of over 55% in size
Settings: yeast expressing A-beta42, growth rescue, OD600, 48 h, 0% DMSO, 100% iron-clioquinol control; at 46.1 µM (top of the series)
Excerpt: The A-beta peptide is produced by the processing of the amyloid precursor protein (APP) by two proteases, beta and gamma secretases. […] A-beta42 is regarded as the most amyloidogenic form due to its hydrophobicity; however, precisely how A-beta42 induces neurotoxicity is unclear. To understand further this biology and its potential therapeutic implications for human neurodegenerative disease, a quantitative high-throughput screen for compounds that reverse the cellular toxicity of the A-beta peptide was developed. A yeast based screen was used because it recapitulates the salient feature of protein mis-folding disorder accurately. This cell-based phenotypic screen provides a significant, unbiased advantage by letting the compounds and models inform us which proteins or pathways are most relevant. The ideal chemical candidates would therefore have activity in both our primary yeast and secondary neuronal toxicity assays, as well as in mouse models. They will be valuable tools for dissecting diverse protein homeostasis pathologies and could potentially become the focus for future pre-clinical development. For this luminescence assay, inhibition of A-beta rescues the toxic effect in the yeast cell, resulting in increase of signals and the desired phenotype of "Activator". This screen is run against the Molecular Libraries Small Molecule Repository (MLSMR) and the NCGC Sytravon Library Collection.
NIH Chemical Genomics Center [NCGC]
NIH Molecular Libraries Probe Centers Network [MLPCN]
Assay Submitter (PI): Susan Lindquist, Whitehead Institute, Massachusetts Institute of Technology
[1] Vassar R,et al (1999). Beta-secretase cleavage of Alzheimer's amyloid precursor protein by the transmembrane aspartic protease BACE. Science. 286: 735-741.
[2] Yan R, et al (1999). Membrane-anchored aspartyl protease with Alzheimer's disease beta-secretase activity. Nature. 402: 533-536.
Two and a half microliter / well of yeast growth medium were dispensed in a 1536 assay plate. Compounds were pinned using the Kalypsys robotic system followed by addition of 2.5 uL / well yeast solution. The assay plates were incubated at 30 C. After 48 hr, the absorbance signal at 600 nm was obtained using the PerkinElmer ViewLux plate reader to assess yeast growth. The data was normalized to the positive control of an equimolar mixture of ferric chloride (FeCl3) and clioquinol and to the negative control DMSO.

SMILES	growth rescue
CC1=NCCc2c1[nH]c1ccccc21.O=[N+]([O-])c1cc([N+](=O)[O-])c(O)c([N+](=O)[O-])c1	inactive: 8.89%
Cc1cc(C)cc(OP(C)(=O)Nc2ccc(C)cc2C)c1 (stereo unspecified)	inactive: 13.4%
CCOC(=O)c1ccc(NP(C)(=O)Oc2cc(C)cc(C)c2)cc1 (stereo unspecified)	inactive: -3.62%
COc1ccccc1OP(C)(=O)Nc1cccc(Br)c1 (stereo unspecified)	inactive: -1.89%
CP(=O)(Nc1cccc(Br)c1)Oc1ccccc1 (stereo unspecified)	inactive: -12.7%
Cc1cc(C)cc(OP(C)(=O)Nc2ccccn2)c1 (stereo unspecified)	inactive: 11.6%
Cc1ccc(C)c(NP(C)(=O)Oc2ccccc2)c1 (stereo unspecified)	inactive: -4.17%
CN(Cc1cccnc1)C(=O)COc1ccc(Cl)c(Cl)c1.O=[N+]([O-])c1cc([N+](=O)[O-])c(O)c([N+](=O)[O-])c1	inactive: -3.28%
O=[N+]([O-])c1cc([N+](=O)[O-])c(-n2nnc3ccccc32)c([N+](=O)[O-])c1	inactive: 2.18%
Cc1nc2ccc3ccccc3c2s1.O=[N+]([O-])c1cc([N+](=O)[O-])c(O)c([N+](=O)[O-])c1	inactive: -8.13%
O=[N+]([O-])c1cc([N+](=O)[O-])c(-c2cnn(-c3ccccc3)c2)c([N+](=O)[O-])c1	inactive: -92.4%
O=[N+]([O-])c1cc([N+](=O)[O-])c(Nc2nnnn2CCO)c([N+](=O)[O-])c1	inactive: -7.33%
CC1=C2N=C(C=C3N=C(C(C)=C4[N-][C@@](C)([C@@H]5N=C1[C@](C)(CCC(=O)NC[C@@H](C)OP(=O)([O-])O[C@H]1[C@@H](O)[C@@H](n6cnc7cc(C)c(C)cc76)O[C@@H]1CO)[C@H]5CC(N)=O)[C@@](C)(CC(N)=O)[C@@H]4CCC(N)=O)[C@@](C)(CC(N)=O)[C@@H]3CCC(N)=O)C(C)(C)[C@@H]2CCC(N)=O.[C-]#N.[Co+3]	inactive: -1.33%
CP(=O)(Nc1ccc(SC(F)(F)F)cc1)Oc1ccccc1 (stereo unspecified)	inactive: 14.7%
CCCOc1ccc(NP(C)(=O)Oc2ccc(Cl)cc2)cc1 (stereo unspecified)	inactive: 29.1%
CN1CCCCC1COC(=O)C1(O)c2ccccc2CCc2ccccc21 (stereo unspecified)	inactive: 17.3%
COc1ccccc1OP(C)(=O)Nc1c(C)cccc1C (stereo unspecified)	inactive: 2.88%
COc1ccccc1OP(C)(=O)Nc1ccccc1 (stereo unspecified)	inactive: 4.9%
CP(=O)(Nc1ccccc1Br)Oc1ccccc1 (stereo unspecified)	inactive: 19.5%
CP(=S)(Nn1cnnc1)Oc1ccccc1 (stereo unspecified)	inactive: -17.7%
CCc1ccc(OP(C)(=O)N2CCN(c3ccc([N+](=O)[O-])cc3)CC2)cc1 (stereo unspecified)	inactive: 1.55%
CP(=O)(NC(=O)Nc1ccccc1)Oc1ccccc1 (stereo unspecified)	inactive: -6.72%

SMILES	growth rescue
Cc1cc(C)cc(OP(C)(=O)Nc2ccc(SC(F)(F)F)cc2)c1 (stereo unspecified)	inactive: 13.5%
Cc1cccc(C)c1OP(C)(=O)Nc1ccc(SC(F)(F)F)cc1 (stereo unspecified)	inactive: 13.7%
CP(=O)(Oc1ccccc1)OC(c1ccccc1)C(F)(F)F (stereo unspecified)	inactive: 8.97%
CP(=O)(Nc1ccccn1)Oc1ccc(Cl)cc1 (stereo unspecified)	inactive: 3.32%
CCOP(C)(=S)SCC(=O)NC(C)C(=O)O (stereo unspecified)	inactive: 12.6%
O=[N+]([O-])c1cc([N+](=O)[O-])c(O)c([N+](=O)[O-])c1.c1ccc(Oc2ccncc2)cc1	inactive: 10.3%
CCOC(=O)c1ccc(NP(C)(=O)Oc2ccc(OC)cc2)cc1 (stereo unspecified)	inactive: 5.08%
CCN(CC)CCCOC(=O)C(O)(c1ccccc1)c1ccccc1	inactive: 10.3%
COc1ccccc1-c1ccccn1.O=[N+]([O-])c1cc([N+](=O)[O-])c(O)c([N+](=O)[O-])c1	inactive: -3.82%
CC(C)(C)c1ccc(OP(C)(=O)Nc2ccc(SC(F)(F)F)cc2)cc1 (stereo unspecified)	inactive: 4.18%
Cc1cccc(C)c1OP(C)(N)=O (stereo unspecified)	inactive: 5.48%
O=[N+]([O-])c1ccc2c(c1)C=Nc1ccccc1O2	inactive: -38.4%
O=[N+]([O-])c1cc([N+](=O)[O-])c(Nc2cccnc2)c([N+](=O)[O-])c1	inactive: -25%
COc1ccccc1OP(C)(=O)Nc1cc(Cl)ccc1C (stereo unspecified)	inactive: -5.02%
COc1ccc(OP(C)(=O)Nc2cccc(F)c2)cc1 (stereo unspecified)	inactive: 10.2%
Cc1cc(C)cc(OP(C)(N)=O)c1 (stereo unspecified)	inactive: -19.1%
CCOC(=O)c1ccc(NP(C)(=O)Oc2ccccc2)cc1 (stereo unspecified)	inactive: 7.33%
COc1ccccc1OP(C)(=O)Nc1ccc(C)cc1 (stereo unspecified)	inactive: 25.2%
Cc1ccc(NP(C)(=O)Oc2ccccc2)c(C)c1 (stereo unspecified)	inactive: 0.0874%
COc1ccc(OP(C)(=O)Nc2ccccc2Br)cc1 (stereo unspecified)	inactive: -13.9%
COc1ccccc1OP(C)(=O)Nc1ccc(C)c(C)c1 (stereo unspecified)	inactive: 11.7%
Cc1cc(C)cc(OP(C)(=O)Nc2cccc(C(F)(F)F)c2)c1 (stereo unspecified)	inactive: 6.52%

SMILES	growth rescue
CP(=O)(OCCOc1ccccc1)OCCOc1ccccc1	inactive: 1.54%
CCCCCCCCCCCCCCCC1C[N+](C)(C)CCOP(C)(=O)O1 (stereo unspecified)	inactive: -50.3%
CP(=O)(Nc1ccc(Cl)cc1Cl)Oc1ccccc1 (stereo unspecified)	inactive: 11.3%
CN(C)CCOC(=O)C(O)(c1ccccc1)C1CCCC1 (stereo unspecified)	inactive: -1.21%
COc1ccc(OP(C)(=O)Nc2ccccn2)cc1 (stereo unspecified)	inactive: -21.3%
COc1ccccc1OP(C)(=O)Nc1ccc(Br)cc1 (stereo unspecified)	inactive: 10.5%
CCc1ccc(OP(C)(=O)O)cc1	inactive: 0.74%
CP(=O)(Nc1ccccn1)Oc1ccccc1 (stereo unspecified)	inactive: -3.31%
COc1ccccc1OP(C)(=O)Nc1ccc(C)cc1C (stereo unspecified)	inactive: 20.8%
O=[N+]([O-])c1cc([N+](=O)[O-])c(Nc2ccccn2)c([N+](=O)[O-])c1	inactive: -90.4%
Cc1c(NP(C)(=O)Oc2ccc(C(C)C)cc2)c(=O)n(-c2ccccc2)n1C (stereo unspecified)	inactive: 10.8%
CP(=O)(Oc1ccccc1)N1CCOC1=O (stereo unspecified)	inactive: 1.16%
CCc1ccc(OP(C)(=O)Nc2cccnc2)cc1 (stereo unspecified)	inactive: 24.3%
COc1ccccc1OP(C)(=O)Nc1c(C)n(C)n(-c2ccccc2)c1=O (stereo unspecified)	inactive: 4.58%
O=C(OCCCN1CCCC1)C(O)(c1ccccc1)C1CCCCC1 (stereo unspecified)	inactive: 5.81%
CCN(CC)CC(O)COC(=O)C(O)(c1ccccc1)C1CCCCC1 (stereo unspecified)	inactive: -4.28%
CN(C)C(=O)c1c([N+](=O)[O-])cc([N+](=O)[O-])cc1[N+](=O)[O-]	inactive: -13.7%
CC(C)(C)c1ccc(OP(C)(=O)O)cc1	inactive: 29.1%
COc1ccccc1OP(C)(=O)Nc1ccccc1Br (stereo unspecified)	inactive: 6.74%
CP(=O)(OC12CC3CC(CC(C3)C1)C2)OC12CC3CC(CC(C3)C1)C2	inactive: 5.1%
CCOC(=O)c1ccc(NP(C)(=O)Oc2ccc(Cl)cc2)cc1 (stereo unspecified)	inactive: -0.442%
Nc1ccc2c(ccc3cccnc32)n1.O=[N+]([O-])c1cc([N+](=O)[O-])c(O)c([N+](=O)[O-])c1	inactive: -2.35%

SMILES	growth rescue
COc1ccc(NP(C)(=O)Oc2ccccc2OC)cc1 (stereo unspecified)	inactive: -12.1%
CN(C)CCOC(=O)C(O)(c1ccccc1)C1CCCCC1 (stereo unspecified)	inactive: 3.45%
COc1ccc(OP(C)(=O)Nc2cccc(Br)c2)cc1 (stereo unspecified)	inactive: 8.62%
Cc1c(C(c2ccc3c(c2)OCO3)c2c(C)n(C)n(-c3ccccc3)c2=O)c(=O)n(-c2ccccc2)n1C.O=[N+]([O-])c1cc([N+](=O)[O-])c(O)c([N+](=O)[O-])c1	inactive: -14.6%
Cc1cc(-c2cccc3ccccc23)c(C)cn1.O=[N+]([O-])c1cc([N+](=O)[O-])c(O)c([N+](=O)[O-])c1	inactive: -11.8%
O=[N+]([O-])c1ccc(OP2(=O)COCCO2)cc1 (stereo unspecified)	inactive: -1.45%
CCOP(C)(=S)SCC(=O)NC(C)(CC)C(=O)O (stereo unspecified)	inactive: 4.01%
CP(=O)(Nc1ccc(SC(F)(F)F)cc1)Oc1ccc(F)cc1 (stereo unspecified)	inactive: 27.6%
O=[N+]([O-])c1cc([N+](=O)[O-])c(C(F)(F)F)c([N+](=O)[O-])c1O	inactive: -13.2%
Cc1ccccc1NP(C)(=O)Nc1ccccc1C	inactive: 12.5%
CP(=O)(Nc1ccc2c(c1)OCCO2)Oc1ccccc1 (stereo unspecified)	inactive: -1.79%
CC(C)c1ccc(OP(C)(=O)Nc2ccc(SC(F)(F)F)cc2)cc1 (stereo unspecified)	inactive: 0.804%
CP(=O)(Nc1ccccc1F)Oc1ccccc1 (stereo unspecified)	inactive: -25.2%
O=C(OCCN1CCN(CCOCc2ccccc2)CC1)C(O)(c1ccccc1)c1ccccc1	inactive: 1.82%
COc1ccc(OP(C)(=O)Nc2ccc(SC(F)(F)F)cc2)cc1 (stereo unspecified)	inactive: 18.4%
CCOC(=O)c1ccc(NP(C)(=O)Oc2ccc(F)cc2)cc1 (stereo unspecified)	inactive: 10%
CCCCCOc1ccc(NP(C)(=O)Oc2ccc(Cl)cc2Cl)cc1 (stereo unspecified)	inactive: -8.73%
CP(=O)(Nc1ccccc1)Oc1ccc(F)cc1 (stereo unspecified)	inactive: 3.82%
CCN(CC)CCCOC(=O)C(O)(c1ccccc1)C1CCCCC1 (stereo unspecified)	inactive: 9.87%
Cc1c([N+](=O)[O-])cc([N+](=O)[O-])c(Br)c1[N+](=O)[O-]	inactive: -94.5%
